System: CCOC(=O)CCCCC(=O)CCCl
Assay: purified protein, by the assay type
Settings: other: WT, substrate 0.1-10 mM, NADPH, PB pH 7.0, 30° C.

Substance: Candida orthopsilosis Co 90-125 carbonyl reductase CoCR 13 (Genbank XP_003867714.1), wild type (WT), SEQ ID NO: 1 (Lodderomyces orthopsilosis Co 90-125)
- Km: 5.12 ± 0.87 mM
